Test results taken from US8691184B2, “Bcl-2/Bcl-xL inhibitors and therapeutic methods using the same” (The Regents of the University of Michigan, priority 2011, dated 2014).

The chains behind the UniProt entries cited, without tags or fusion partners.
UniProt Q07820, whole entry, species assumed: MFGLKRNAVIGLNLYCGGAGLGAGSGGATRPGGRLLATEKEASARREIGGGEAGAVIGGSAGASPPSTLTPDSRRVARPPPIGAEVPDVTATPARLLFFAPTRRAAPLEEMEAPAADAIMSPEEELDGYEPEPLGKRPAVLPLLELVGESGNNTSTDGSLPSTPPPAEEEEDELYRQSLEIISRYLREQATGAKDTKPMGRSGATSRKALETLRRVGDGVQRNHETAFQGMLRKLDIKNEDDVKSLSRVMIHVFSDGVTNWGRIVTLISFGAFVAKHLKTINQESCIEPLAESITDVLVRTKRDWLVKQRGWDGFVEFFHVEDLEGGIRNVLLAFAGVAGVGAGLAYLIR

Target: Mcl-1 (Homo sapiens, UniProt Q07820)
Assay: FP-based binding assay, Mcl-1
Details: Table 2, FP-based assay; read-out: Mcl-1 IC50 ± SD

Q: With `CN(C)CC[C@H](CSc1ccccc1)Nc1ccc(S(=O)(=O)NC(=O)c2ccc(N3CCN(Cc4ccccc4-c4ccc(Cl)cc4)CC3)cc2)cc1[N+](=O)[O-]` [ABT-737, reference compound] as the molecule, how does the IC50 read?
A: Its IC50 is greater than 1000 nM.
